Results taken from paper doi:10.1101/2025.02.26.640323, “Aggregation-Dependent Epitope Sequence and Modification Fingerprints of Anti-Aβ Antibodies” (bioRxiv, 2025).

Tests used:
[1] = test system: Alzheimer's disease patients; settings: cited from earlier work
Text: Despite extensive structural, genetic, and pre-clinical investigations, clinical trials of Aβ antibodies have yielded ambiguous outcomes. Aβ antibody binding to cerebral amyloid angiopathy (CAA) has been hypothesized to correlate with the frequency of amyloid-related imaging abnormalities with edema (ARIA-E) observed in patients treated with Aβ-based immunotherapies.

[2] = test system: Aβ phosphorylated at Ser(8); experiment: PTM-Aβ microarray, pSer8; type: binding, human; settings: optimized antibody concentrations (Aducanumabbs 0.02μg/mL; 1E4E11 0.25μg/mL), vs unphosphorylated
Text: Specific PTMs might be associated with different stages of AD progression and severity, offering potential biomarkers for diagnosis and prognosis. Targeting PTMs represents a potential therapeutic strategy to prevent Aβ aggregation and neurotoxicity, thereby slowing disease progression. […] Therefore, a selected group of PTM-carrying Aβ peptides (PTM-Aβ) were incorporated into the Aβ chip to explore the potential binding preference of selected Aβ-Abs, under optimized concentrations (Figure 3). The antibodies were tested with both PTM-Aβ and the corresponding unmodified variants to provide a head-to-head comparison. This screening was performed in the presence of Aβ phosphorylated at positions Ser(8) or Ser(26), N-terminal pE at position 3, racemization/isomerization of Asp at position 1, and unmodified N-terminal variants. The dataset is divided into sections (Figure 3 a–f) for enhanced visualization, where each antibody was screened simultaneously against all peptides to locate their epitope preferences. […] A set of antibodies without reported PTM preference was applied here as controls (refer to Table 1), namely 11H3, 101–1-1, IC16, 82E1 and 3D6.
Figure 3. […] Blue and red shades indicate the binding strength over the related arrayed […] modified peptide shown on top and cognate anti-Aβ antibody to the left. […]

Substance: Aducanumab: recombinant human antibody, Neurimmune AG/Biogen
- clinical outcome, EMERGE (Phase 3) ([1]; Clinical Dementia Rating Sum of Boxes, high dose vs. placebo, ref [43]): statistically significantly slower decline
- ARIA-E frequency ([1]; cross-study comparison, ref [38]): 25–35%
- clinical outcome, ENGAGE (Phase 3) ([1]; primary endpoints, ref [43]): failed to meet its primary endpoints
- preference for pSer8 Aβ [2]: preference of Aducanumab for Ser8-phosphorylated Aβ for non-aggregated forms
